A short description of this data set: Polymerization time of human serum albumin/glutaraldehyde mixtures in vitro (tube inversion). In kind it is physicochemical. To be noted: at similar concentrations, with GA. On the procedure: In order to measure polymerization times, as described above, an albumin mixture (0.9 mL), which may include polyvinylpyrrolidone or dextran, was prepared in 2 mL microfuge tube. A glutaraldehyde mixture (0.1 mL) was then added. The combination was mixed for 5 seconds with Vortex. The microfuge tube inverted every 3 to 15 seconds. Polymerization time recorded when mixture no longer deforms visibly with inversion.
Serial dilutions of GA were combined with a fixed concentration of HSA to assess the effects of GA concentration on polymerization time. GA at concentrations from 0.25 to 0.5% GA was polymerized with 22.5% albumin (Note: all concentrations are listed as concentration after final mixing). The experiments were repeated with the addition of 4.5 or 9% PVP.

As to “HSA: 25% Human serum albumin (Baxter 1500233)”, the “polymerization speed compared with BSA” value is “polymerize more quickly than BSA”.

The values are drawn from patent publication US8911750B2, “Lung volume reduction therapy using crosslinked biopolymers” (priority 2007, dated 2014).
